# Key:
# [1] = system: patient-derived breast cancer explant cultures (PDECs); type: cell-based, human
# Method: Primary breast cancer tissue was processed into small explants (previously described in Haikala et al. (Pharmacological reactivation of MYC-dependent apoptosis induces susceptibility to anti-PD-1 immunotherapy, Nature Communications, 2019, 10:620; https://www.nature.com/articles/s41467-019-08541-2) and embedded in 3D matrices. In total 40 μl of matrix, forming a dome, per well was cultured in 500 μl of MammoCult growth media (STEMCELL, #05620) in ex vivo for 7 days on an 8-well chamber slides (Thermo Fisher Scientific, 177402). The tested 3D matrices were following: NFC (1.0%/0.3%), ANFC (0.7%/0.3%) and ANFC-A (0.7%/0.3%), and as a control undiluted Matrigel. The Matrigel was used as 40 μl of matrix together with 500 μl of MammoCult growth media in a well. The NFCs were diluted to the desired concentrations according to the manufacturer's instructions. ANFC-A was functionalized with human recombinant biotinylated IL-2 (2 ng/ml) (BT202-025/CF, R&D Systems). 50 μl of IL-2 diluted in 1×PBS was mixed with 300 μl (0.3%) or 700 μl (0.7%) of NFC and incubated for 1 hour at RT. Functionalized matrix was mixed with culture media to adjust the correct concentrations (550 μl for 0.3% and 150 μl for 0.7%). […]
# The effects of the 3D culturing on explant viability, proliferation and apoptosis, was analyzed with immunofluorescent staining. […]
# [2] = system: peripheral blood mononuclear cells (PBMC); experiment: Flow cytometry of PBMCs grown in matrices for 5 days; type: cell-based, human
# Method: Buffy coat from one donor was obtained from FRC blood service, Helsinki. Human peripheral blood mononuclear cells were isolated with Ficol-Paque density centrifugation and stored at −145° C. Cells were quickly thawed and mixed with diluted NFC so that one 8-well chamber slides well contained 2 million cells in 40 μl of matrix. 500 μl of media was added on top, and when media was replenished at the day 3, sample was collected for cytokine profiling. At day 5 the growth media was collected for cytokine profiling, and 3D culture was further processed for flow cytometry analysis. In addition to 3D culture, 2 million PBMCs were cultured as a floating culture, where cells were added on a low adhesion 6-well plate in 2 ml of growth media, with or without IL-2 supplementation (2 ng/ml). In floating culture, media was not changed during 5 days of culture.
# NFC-grown PBMCs were stained for immunophenotyping by flow cytometry with lymphocyte and macrophage panel antibodies. […]
# This amount of enzyme could dissociate the NFC efficiently in 1 hour, without harming the cells. […] SYTOX green dead cell marker (Thermo Fisher Scientific, S34860) and Countbright Absolute counting beads (Invitrogen, C36950) were added to sample tubes and the cell counts were normalized to beads counted during the sample acquisition performed with BD FACS Aria II (BD Biosciences). […] The data were analyzed with FlowJo version 10.7. […]
substance,measurement,setting,value
"IL-2: human recombinant biotinylated interleukin-2 (BT202-025/CF, R&D Systems) used to functionalize ANFC-A",adverse effects on epithelial cell viability,[1],not observed to have any adverse effects
same,"effect on NK, NKT, and CD14− monocytes",[2]; IL-2 functionalization of the matrix,positive effect
same,effect on CD14+ monocytes,[2]; IL-2 supplementation (functionalization),negative effect

# — patent US20230258624A1, “Ex vivo tumour immune microenvironment model, a method for preserving a tumour-specific immune cell profile in an ex vivo tumour immune microenvironment model and use of nanofibrillar cellulose” (UPM-Kymmene Corporation, priority 2022, published 2023)
